Assay results taken from ChEMBL document CHEMBL4808169, “Discovery of Potent and Fast-Acting Antimalarial Bis-1,2,4-triazines” (J Med Chem, 2021).

Legend:
Assay type in all cases: functional
[1] = tested on: Plasmodium falciparum; experiment: Selectivity ratio of IC50 for Plasmodium falciparum K1 to IC50 for Plasmodium falciparum NF54
[2] = tested on: Plasmodium falciparum; experiment: Selectivity ratio of IC50 for Plasmodium falciparum Dd2 (DSM265) to IC50 for Plasmodium falciparum NF54
[3] = tested on: Plasmodium falciparum; experiment: Selectivity ratio of IC50 for Plasmodium falciparum Dd2 (ELQ300) to IC50 for Plasmodium falciparum NF54
[4] = tested on: Plasmodium falciparum; experiment: Selectivity ratio of IC50 for Plasmodium falciparum MRA1240 to IC50 for Plasmodium falciparum NF54
[5] = tested on: Plasmodium falciparum; experiment: Selectivity ratio of IC50 for Plasmodium falciparum Dd2 (GNF156) to IC50 for Plasmodium falciparum NF54
[6] = tested on: Plasmodium falciparum; experiment: Selectivity ratio of IC50 for Plasmodium falciparum TM90C2B to IC50 for Plasmodium falciparum NF54
[7] = tested on: Plasmodium falciparum; experiment: Selectivity ratio of IC50 for Plasmodium falciparum Dd2 to IC50 for Plasmodium falciparum NF54
[8] = tested on: Plasmodium falciparum; experiment: Selectivity ratio of IC50 for Plasmodium falciparum 7G8 to IC50 for Plasmodium falciparum NF54
[9] = tested on: Plasmodium falciparum; experiment: Selectivity ratio of IC50 for Plasmodium falciparum Dd2 (DDD107498) to IC50 for Plasmodium falciparum NF54
[10] = tested on: Plasmodium falciparum; experiment: Selectivity ratio of IC50 for Plasmodium falciparum Dd2 (MMV048) to IC50 for Plasmodium falciparum NF54
[11] = tested on: Plasmodium falciparum; experiment: Selectivity ratio of IC50 for Plasmodium falciparum RF12 to IC50 for Plasmodium falciparum NF54

Measured: Ratio IC50

CCCOc1nncc(-c2cnnc(OCCN(C)C)n2)n1
1.1: all assays above
